Test system: human liver microsomes (HLMs)
Assay: Low-dose (LC-MS/MS) metabolism / intrinsic clearance in human liver microsomes
Details: for Decay Type (metabolism type): one column for both regimens, BPD = biphasic in MS and/or NMR; for % Remaining (data based on MS): percent of OP remaining after incubation, low-dose regimen

Substance | Decay Type (metabolism type) | % Remaining (data based on MS) [%]
Chlorpyrifos Oxon | OPD | –
Fenthion Oxon | OPD | 90.00
Paraoxon-ethyl | OPD | –
Paraoxon-methyl | – | 68.00
